Laboratory results published in patent publication US20260224524A1, “A PHARMACEUTICAL COMPOSITION TARGETING MUTANT P53 AND HER2” (DR DOZO LABORATORIES, priority 2023, published 2026).

Tested on: human tumour xenograft MDA-MB-231
Test: Human tumour xenograft MDA-MB-231 model, tumour volume and relative tumour volume
Type: in vivo, mice
Settings: Group B, 2.5 mg/kg i.v. day 1, 5, 9
Protocol: The therapeutic effect of SACC is evaluated against triple-negative breast cancer cell line MDA-MB-231 by analysing tumour volume and relative tumour volume. The study involved the use of six mice. These mice were administrated treatment according to the following Groups: […]

COc1cccc2c1C(=O)c1c(O)c3c(c(O)c1C2=O)C[C@@](O)(C(=O)CO)C[C@@H]3O[C@H]1C[C@H](N)[C@H](O)[C@H](C)O1 [ADR, Adriamycin]
RTV (Relative Tumour Volume) (day 1): 1.00
RTV (Relative Tumour Volume) (day 12): 1.14
